Literature values, collected in patent US7175829B2, “Contrast-enhanced diagnostic imaging method for monitoring interventional therapies” (Epix Pharmaceuticals, Inc., priority 1997, dated 2007).

Test system: alpha 1-acid glycoprotein (AAG)
Conditions: binding to alpha 1-acid glycoprotein; cited from earlier work

Structure (SMILES): CN(C)CCCN1c2ccccc2CCc2ccccc21 [imipramine]
- Ka: 2.4×10^5
